Data published in paper PMC3199943, “Screening the MayBridge Rule of 3 Fragment Library for Compounds That Interact with the Trypanosoma brucei myo-Inositol-3-Phosphate Synthase and/or Show Trypanocidal Activity” (Molecular Biology International, 2011).

Molecular target: T1, TbINO1 (Trypanosoma brucei brucei, UniProt Q5QQ46)
T1 sequence (Q5QQ46 1-528): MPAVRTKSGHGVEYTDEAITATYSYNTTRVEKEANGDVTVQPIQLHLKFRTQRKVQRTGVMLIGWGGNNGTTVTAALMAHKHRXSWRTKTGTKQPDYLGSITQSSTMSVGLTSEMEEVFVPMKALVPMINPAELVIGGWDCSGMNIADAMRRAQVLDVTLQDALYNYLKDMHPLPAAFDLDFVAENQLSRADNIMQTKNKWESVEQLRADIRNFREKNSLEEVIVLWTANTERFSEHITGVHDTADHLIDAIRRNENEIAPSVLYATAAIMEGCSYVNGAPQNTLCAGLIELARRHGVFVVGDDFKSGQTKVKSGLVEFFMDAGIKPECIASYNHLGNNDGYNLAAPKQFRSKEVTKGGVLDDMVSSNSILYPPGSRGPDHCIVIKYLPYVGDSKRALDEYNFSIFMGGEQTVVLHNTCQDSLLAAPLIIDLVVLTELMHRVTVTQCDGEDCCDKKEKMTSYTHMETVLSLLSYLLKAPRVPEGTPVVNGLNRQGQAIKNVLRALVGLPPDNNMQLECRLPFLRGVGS
Experiment: biochemical
Details: read-out: TbIno1 Tm shift [°C]

Compound: O=C(O)C1CCCNC1 (stereo not shown) [compound 91, 3-piperidinecarboxylic acid]
- ΔTm at 1000 µM: 1.69 ± 0.1 °C
